Assay results published in publication PMC9237071.

Chains of the proteins cited; added tags and fusions are not shown.
UniProt P34972, whole entry: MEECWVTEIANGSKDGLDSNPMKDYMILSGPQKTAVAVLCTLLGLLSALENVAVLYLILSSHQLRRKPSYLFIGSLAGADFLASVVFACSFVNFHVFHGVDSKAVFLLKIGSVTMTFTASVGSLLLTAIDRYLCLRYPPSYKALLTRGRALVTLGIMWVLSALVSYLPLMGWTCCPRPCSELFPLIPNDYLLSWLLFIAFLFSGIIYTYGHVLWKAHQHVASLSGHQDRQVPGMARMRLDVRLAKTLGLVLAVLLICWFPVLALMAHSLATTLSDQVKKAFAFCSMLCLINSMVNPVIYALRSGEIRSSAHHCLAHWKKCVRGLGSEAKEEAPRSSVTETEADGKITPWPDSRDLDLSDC

How the values were obtained:
[1] = biological target: T1, human cannabinoid receptor CB2 (Homo sapiens, UniProt P34972); assay: yeast CB2 NanoLuc reporter dose-response (agonist), A2A null control strain
[2] = biological target: T1, human cannabinoid receptor CB2; assay: yeast CB2 NanoLuc reporter, antagonism of CP55940, A2A null control strain

Row | Compound | EC50 [1] [nM] | IC50 [2] [nM]
1 | COc1cc(NC(=O)c2oc3ccc(Cl)cc3c2C)ccc1NC(=O)c1ccco1 | 389 | 
2 | CCc1ccc(NC(=O)Cn2cnc3scc(-c4ccccc4)c3c2=O)cc1 |  | 710
3 | CC(C)C(=O)NC(NC(=S)Nc1ccccc1C(=O)O)C(Cl)(Cl)Cl (stereo not drawn) | 1500 | 
